Assay: not given
Conditions: pH 6.8

For `O=C(O)CCC(=O)C(=O)O` [Ketoglutarate], the “Aq Solub” value was 1.93 ± 0.04 mg/mL.

Assay: Aqueous solubility of crystalline salts of Q702 (slurried overnight in deionised water, HPLC)
Conditions: crystalline salts slurried overnight in deionised water (pH = 6.8), solution pH measured

In order of falling pH of solution:
1. CCCn1cc(OCC(F)(F)F)c(C(=O)Nc2ccc(Oc3ccnc4cc(OC)c(OC)cc34)cn2)n1.O=C(O)CC(=O)O [Malonate]  3.38
2. CCCn1cc(OCC(F)(F)F)c(C(=O)Nc2ccc(Oc3ccnc4cc(OC)c(OC)cc34)cn2)n1.O=C(O)C(=O)O [Oxalate]  3.04
3. CCCn1cc(OCC(F)(F)F)c(C(=O)Nc2ccc(Oc3ccnc4cc(OC)c(OC)cc34)cn2)n1.Cl [Q702 HCl salt, N-(5-((6,7-dimethoxyquinolin-4-yl)oxy)pyridin-2-yl)-1-propyl-4-(2,2,2-trifluoroethoxy)-1H-pyrazole-3-carboxamide hydrochloride]  2.68
4. CCCn1cc(OCC(F)(F)F)c(C(=O)Nc2ccc(Oc3ccnc4cc(OC)c(OC)cc34)cn2)n1.O=P(O)(O)O [Phosphate]  2.53
5. CCCn1cc(OCC(F)(F)F)c(C(=O)Nc2ccc(Oc3ccnc4cc(OC)c(OC)cc34)cn2)n1.O=S(=O)(O)CCS(=O)(=O)O [Edisylate]  2.31

Reference: US20250188058A1, “NEW FORMS OF N-(5-((6,7-DIMETHOXYQUINOLIN-4-YL)OXY)PYRIDIN-2-YL)-1-PROPYL-4-(2,2,2-TRIFLUOROETHOXY)-1H-PYRAZOLE-3-CARBOXAMIDE HYDROCHLORIDE” (QURIENT CO., LTD., priority 2022, published 2025)
